Data reported in ChEMBL document CHEMBL1134540, “ElogD(oct): a tool for lipophilicity determination in drug discovery. 2. Basic and neutral compounds” (J Med Chem, 2001).

Assay: physchem

c1ccc2ccccc2c1
logD: 3.37
